According to patent US20260382772A1, “KETO-AMIDE-BASED FIBROBLAST ACTIVATION PROTEIN-TARGETED LIGAND LINKED TO AN IMAGING OR THERAPEUTIC AGENT, COMPOSITIONS, AND METHODS OF USE” (published 2026):

Test system: 4T1 tumor bearing mice
Assay: Biodistribution of ^177Lu-FAP8-PEG3-IP-DOTA in 4T1 tumor bearing mice
Source text: Balb/c mice were inoculated on their shoulders with 1×10^5 cells of 4T1 cells, whereas nu/nu mice were inoculated on their shoulders with 5×10^6 cells of HT29 (a human colorectal adenocarcinoma cell line), KB (tumor cell line HeLa), MDA-MB-231 (a human breast cancer cell line), or HEK-FAP cells.
For the first study, two different tumor-bearing mice (4T1 and HEK-hFAP) were intravenously injected with [^111In] In-FAP8-PEG3-IP-DOTA (In-Conjugate 24′) (0.74 MBq/mouse, 1-10 nmol/mouse) or [^177Lu] Lu-FAP8-PEG3-IP-DOTA (Lu-Conjugate 24′) (7.4 MBq/mouse, 0.3 nmol-5 nmol/mouse).
At indicated time points (1 hour, 4 hours, 24 hours, 72 hours, 120 hours, and 168 hours post-injection), mice were assessed and/or euthanized by CO2 asphyxiation and organs of interest were harvested, excess blood was rinsed, dried, weighed, and then analyzed by gamma counter, and the results were decay corrected and presented as the percentage of the injected dose per gram of tissue (% ID/g)±standard deviation (SD).
Dose escalation analyses of [^177Lu] Lu-FAP8-PEG3-IP-DOTA (Lu-Conjugate 24′) in 4T1 tumor-bearing mice was performed (n=3) with 0.3 nmol/mouse (FIG. 45A) or 1.0 nmol/mouse (FIG. 45B) of Lu-Conjugate 24′ provided with constant radioactivity (0.74 MBq/mouse) and measured at different times (1 hour, 4 hours, 24 hours, 72 hours, 120 hours, and 168 hours post-injection).

## COc1ccc(CNC(=O)C(=O)[C@@H]2CC(F)(F)CN2C(=O)CNC(=O)c2ccnc3ccc(OCC(=O)NCCOCCOCCOCCNC(=O)[C@H](CCCCNC(=O)CCCc4ccc(I)cc4)NC(=O)CN4CCN(CC(=O)O)CCN(CC(=O)O)CCN(CC(=O)O)CC4)cc23)cc1OC.[Lu+3]
0.3 nmol/mouse, 1 h
  Blood uptake: 25.42 ± 3.72 % ID/g
  Bone marrow uptake: 6.70 ± 4.92 % ID/g
  Heart uptake: 5.03 ± 3.16 % ID/g
  Intestine uptake: 1.92 ± 0.411 % ID/g
  Kidneys uptake: 4.86 ± 3.29 % ID/g
  Liver uptake: 7.05 ± 2.01 % ID/g
  Lungs uptake: 5.73 ± 1.54 % ID/g
  Spleen uptake: 4.12 ± 1.79 % ID/g
  Stomach uptake: 1.50 ± 0.78 % ID/g
  Tumor uptake: 5.79 ± 3.38 % ID/g
  Tumor/Blood: 0.17 ± 0.06
  Tumor/Bone marrow: 1.08 ± 0.77
  Tumor/Kidneys: 1.19 ± 0.23
0.3 nmol/mouse, 4 h
  Blood uptake: 10.35 ± 4.64 % ID/g
  Bone marrow uptake: 4.32 ± 2.99 % ID/g
  Heart uptake: 2.72 ± 1.53 % ID/g
  Intestine uptake: 1.26 ± 0.64 % ID/g
  Kidneys uptake: 3.48 ± 2.54 % ID/g
  Liver uptake: 5.79 ± 0.12 % ID/g
  Lungs uptake: 4.96 ± 3.24 % ID/g
  Spleen uptake: 3.48 ± 1.64 % ID/g
  Stomach uptake: 0.73 ± 0.09 % ID/g
  Tumor uptake: 5.24 ± 1.91 % ID/g
  Tumor/Blood: 0.53 ± 0.31
  Tumor/Bone marrow: 1.25 ± 0.85
  Tumor/Kidneys: 1.02 ± 0.23
0.3 nmol/mouse, 24 h
  Blood uptake: 4.28 ± 1.46 % ID/g
  Bone marrow uptake: 1.49 ± 1.4 % ID/g
  Heart uptake: 1.63 ± 1.02 % ID/g
  Intestine uptake: 0.65 ± 0.15 % ID/g
  Kidneys uptake: 2.09 ± 2.44 % ID/g
  Liver uptake: 5.88 ± 2.38 % ID/g
  Lungs uptake: 2.12 ± 0.76 % ID/g
  Spleen uptake: 2.07 ± 1.11 % ID/g
  Stomach uptake: 0.91 ± 0.25 % ID/g
  Tumor uptake: 5.94 ± 2.18 % ID/g
  Tumor/Blood: 1.35 ± 1.45
0.3 nmol/mouse, 72 h
  Blood uptake: 1.48 ± 0.12 % ID/g
  Bone marrow uptake: 1.20 ± 2.08 % ID/g
  Heart uptake: 2.08 ± 0.28 % ID/g
  Intestine uptake: 0.88 ± 0.27 % ID/g
  Kidneys uptake: 1.52 ± 0.59 % ID/g
  Liver uptake: 6.39 ± 2.65 % ID/g
  Lungs uptake: 2.30 ± 1.00 % ID/g
  Spleen uptake: 2.85 ± 1.28 % ID/g
  Stomach uptake: 0.67 ± 0.135 % ID/g
  Tumor uptake: 5.12 ± 1.34 % ID/g
  Tumor/Blood: 3.41 ± 0.55
  Tumor/Bone marrow: 1.69 ± 0.0
  Tumor/Kidneys: 4.09 ± 2.30
0.3 nmol/mouse, 120 h
  Bone marrow uptake: 0.85 ± 5.57 % ID/g
  Heart uptake: 1.07 ± 0.30 % ID/g
  Intestine uptake: 0.68 ± 0.37 % ID/g
  Kidneys uptake: 2.12 ± 0.88 % ID/g
  Liver uptake: 3.62 ± 1.59 % ID/g
  Lungs uptake: 1.53 ± 1.52 % ID/g
  Spleen uptake: 2.22 ± 0.28 % ID/g
  Stomach uptake: 0.54 ± 0.22 % ID/g
  Tumor uptake: 3.32 ± 2.49 % ID/g
  Tumor/Blood: 3.99 ± 2.45
  Tumor/Bone marrow: 3.03 ± 1.91
  Tumor/Kidneys: 1.62 ± 0.63
0.3 nmol/mouse, 168 h
  Blood uptake: 0.4 ± 0.1 % ID/g
  Bone marrow uptake: 1.76 ± 1.72 % ID/g
  Heart uptake: 0.8 ± 0.5 % ID/g
  Intestine uptake: 0.6 ± 0.2 % ID/g
  Kidneys uptake: 1.33 ± 1.02 % ID/g
  Liver uptake: 4.93 ± 0.49 % ID/g
  Lungs uptake: 0.5 ± 0.2 % ID/g
  Spleen uptake: 3.13 ± 0.98 % ID/g
  Stomach uptake: 0.46 ± 0.05 % ID/g
  Tumor uptake: 3.43 ± 0.98 % ID/g
  Tumor/Blood: 8.4 ± 0.94
  Tumor/Bone marrow: 4.77 ± 4.55
  Tumor/Kidneys: 3.55 ± 2.09
1.0 nmol/mouse, 1 h
  Blood uptake: 16.3 ± 6.47 % ID/g
  Bone marrow uptake: 1.46 ± 1.05 % ID/g
  Heart uptake: 2.00 ± 1.08 % ID/g
  Intestine uptake: 1.67 ± 1.53 % ID/g
  Kidneys uptake: 3.51 ± 0.22 % ID/g
  Liver uptake: 5.23 ± 0.52 % ID/g
  Lungs uptake: 1.97 ± 1.67 % ID/g
  Spleen uptake: 2.66 ± 0.69 % ID/g
  Stomach uptake: 1.13 ± 0.77 % ID/g
  Tumor uptake: 4.59 ± 1.59 % ID/g
  Tumor/Blood: 0.22 ± 0.06
  Tumor/Bone marrow: 7.53 ± 8.14
  Tumor/Kidneys: 1.15 ± 0.40
1.0 nmol/mouse, 4 h
  Blood uptake: 10.16 ± 8.11 % ID/g
  Bone marrow uptake: 0.63 ± 0.44 % ID/g
  Heart uptake: 1.89 ± 0.31 % ID/g
  Intestine uptake: 1.51 ± 1.15 % ID/g
  Kidneys uptake: 7.89 ± 1.58 % ID/g
  Liver uptake: 5 ± 1.00 % ID/g
  Lungs uptake: 3.16 ± 2.58 % ID/g
  Spleen uptake: 2.28 ± 0.71 % ID/g
  Stomach uptake: 0.95 ± 0.47 % ID/g
  Tumor uptake: 9.19 ± 4.39 % ID/g
  Tumor/Blood: 0.93 ± 0.14
  Tumor/Bone marrow: 15.60 ± 3.49
  Tumor/Kidneys: 1.49 ± 0.14
1.0 nmol/mouse, 24 h
  Blood uptake: 4.66 ± 1.32 % ID/g
  Bone marrow uptake: 2.26 ± 1.06 % ID/g
  Heart uptake: 1.04 ± 0.32 % ID/g
  Intestine uptake: 0.89 ± 0.37 % ID/g
  Kidneys uptake: 4.4 ± 0.79 % ID/g
  Liver uptake: 4.6 ± 1.40 % ID/g
  Lungs uptake: 0.92 ± 0.52 % ID/g
  Spleen uptake: 1.93 ± 0.09 % ID/g
  Stomach uptake: 0.51 ± 0.101 % ID/g
  Tumor uptake: 6.93 ± 1.10 % ID/g
  Tumor/Blood: 1.15 ± 0.04
  Tumor/Bone marrow: 2.27 ± 0.10
  Tumor/Kidneys: 1.38 ± 0.33
1.0 nmol/mouse, 72 h
  Blood uptake: 1.48 ± 0.06 % ID/g
